Measured values reported in PubChem BioAssay AID1259373 (The Scripps Research Institute Molecular Screening Center, 2018).
This is a selection; strong and weak results do not stand in their true shares. The source made the active and inactive calls. The rule behind the calls is not given here.

Assay: AlphaScreen optical interference compounds, dose response, counter-screen, biochemical, HTS (AID 1259373)
Settings: AlphaScreen optical interference counterscreen, cell-free

O=[N+]([O-])c1cc2[nH]c3cc([N+](=O)[O-])c([N+](=O)[O-])cc3c2cc1[N+](=O)[O-]
IC50: inactive: > 6.48 µM
